Measurements from PubChem BioAssay AID1885 (Broad Institute, 2009).
The entries are a selection whose mix differs from that of the whole data set. Some tests of the compounds listed are not included; inactive here does not mean inactive elsewhere. Active and inactive are the calls of the source.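 The calls were made as follows: active = mean inhibition across valid replicates above about 55% (limit read from the data); inconclusive = mean below that limit but half or more replicates reach it; inactive = mean below it, under half of replicates reach it.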

experiment: inhibitors of intracellular T. cruzi growth, primary screen, luminescence, NIH3T3 host cells (AID 1885);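 also: signal also drops with host cell toxicity which is not excluded here; 0% = plate median of DMSO wells and 100% = zero luminescence signal; higher percent means less beta-gal luminescence so fewer parasites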; settings: T. cruzi beta-gal in NIH3T3, luminescence, 90 h; stronger effect = higher value; concentration not given here
In short: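 System: Mouse NIH/3T3 fibroblasts infected with β-gal-expressing T. cruzi Tulahuen C4 | Quantity: NIH/3T3 cells, 5,000 per well | Reagent: 5000 reporter trypomastigotes per well | Dosing: Compound pinned at 50 nL/well, DMSO | Schedule: 3 h host attachment, then at least 90 h co-culture | Detection: GalScreen luminescence, 60 min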

Structure (SMILES) | inhibition
O=C(NCC1(N2CCCCC2)CCCCC1)c1cc(F)c(F)cc1Cl | inactive: 2.81%
C=CCN1CCN(CCOC(=O)C(O)(c2ccccc2)c2ccccc2)CC1 | inactive: -0.26%
O=C(NCC1(N2CCCCC2)CCCCC1)c1cccc(Br)c1 | inactive: 27.8%
Cc1cc(C(=O)NCC2(N3CCCCC3)CCCCC2)ccc1[N+](=O)[O-] | inactive: -1.61%
CCN1CCCC(OC(=O)C2(O)c3ccccc3C=Cc3ccccc32)C1 (centres undefined) | inactive: -8.49%
COc1ccc(C(=O)NCC2(N(C)C)CCCCC2)cc1 | inactive: -4.49%
CN(C)C1CCCC1OC(=O)C(O)(c1ccccc1)c1ccccc1 (centres undefined) | inactive: -7.65%
CN(C)c1ccc(C(=O)NCC2(N(C)C)CCCCC2)cc1 | inactive: -3.79%
Cc1ccccc1C(=O)NCC1(N2CCCCC2)CCCCC1 | inactive: 16.6%
CC(C)N1C(=O)CC2(CCN(CCOC(=O)C(O)(c3ccccc3)c3ccccc3)CC2)C1=O | inactive: -4.47%
COc1cc(SC)ccc1C(=O)NCC1(N(C)C)CCCCC1 | inactive: 25.8%
CCN(CC)CC(C)C(C)OC(=O)C(O)(c1ccccc1)c1ccccc1 (centres undefined) | inactive: -0.498%
Cc1ccc(C(=O)NCC2(N3CCCCC3)CCCCC2)cc1 | inactive: 3.24%
O=C(NCC1(N2CCCCC2)CCCCC1)c1cc([N+](=O)[O-])ccc1Cl | inactive: -13%
CN1[C@@H]2CC[C@H]1CC(OC(=O)C(O)(c1ccccc1)c1ccccc1)C2 (some centres undefined) | inactive: -10.5%
COc1ccc(Br)c(C(=O)NCC2(N3CCCCC3)CCCCC2)c1 | inactive: 40.8%
CN(C)c1cccc(C(=O)NCC2(N(C)C)CCCCC2)c1 | inactive: 4.17%
CC(C)Oc1ccc(C(=O)NCC2(N(C)C)CCCCC2)cc1 | inactive: -19.6%
O=C(OC1CN2CCC1CC2)C(CO)(c1ccccc1)c1ccccc1 (centres undefined) | inactive: -42.2%
COc1ccc(Cl)cc1C(=O)NCC1(N(C)C)CCCCC1 | inactive: -9.2%
COc1cccc(C(=O)NCC2(N3CCCCC3)CCCCC2)c1 | inactive: -7.71%
O=C(NCC1(N2CCCCC2)CCCCC1)c1cccc(Cl)c1 | inactive: 11.2%
CN(C)C1(CNC(=O)c2ccc(Br)cc2)CCCCC1 | inactive: 3.53%
COc1cc(C(=O)NCC2(N(C)C)CCCCC2)c([N+](=O)[O-])cc1OC | inactive: 0.936%
